Key:
MOR-1D = molecular target: T1, MOR-1D (Mus musculus, UniProt P42866); type: binding; settings: MOR-1D vs MOR-1 or MOR-1E
T1 construct: The cDNA fragments containing the full length MOR-1 or the MOR-1 variants in pCRII-ToPo were subcloned into pcDNA3.1; expressed in transfected cells

Sequences of proteins named here, by UniProt entry; tags and fusion partners are left off. Residues count along the entry.
UniProt P42866, 1-393 isoform P42866-9: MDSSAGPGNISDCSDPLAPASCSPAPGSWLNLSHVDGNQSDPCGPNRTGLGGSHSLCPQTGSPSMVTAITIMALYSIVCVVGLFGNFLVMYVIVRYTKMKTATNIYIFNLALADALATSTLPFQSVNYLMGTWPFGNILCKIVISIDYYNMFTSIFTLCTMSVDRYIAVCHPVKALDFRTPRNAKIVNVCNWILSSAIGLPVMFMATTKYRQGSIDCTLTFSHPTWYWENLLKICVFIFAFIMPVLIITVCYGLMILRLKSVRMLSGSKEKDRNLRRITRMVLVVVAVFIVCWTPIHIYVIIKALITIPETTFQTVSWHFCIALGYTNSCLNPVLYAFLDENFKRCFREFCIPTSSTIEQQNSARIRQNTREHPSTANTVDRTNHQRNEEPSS
UniProt P42866, 1-438 isoform P42866-8: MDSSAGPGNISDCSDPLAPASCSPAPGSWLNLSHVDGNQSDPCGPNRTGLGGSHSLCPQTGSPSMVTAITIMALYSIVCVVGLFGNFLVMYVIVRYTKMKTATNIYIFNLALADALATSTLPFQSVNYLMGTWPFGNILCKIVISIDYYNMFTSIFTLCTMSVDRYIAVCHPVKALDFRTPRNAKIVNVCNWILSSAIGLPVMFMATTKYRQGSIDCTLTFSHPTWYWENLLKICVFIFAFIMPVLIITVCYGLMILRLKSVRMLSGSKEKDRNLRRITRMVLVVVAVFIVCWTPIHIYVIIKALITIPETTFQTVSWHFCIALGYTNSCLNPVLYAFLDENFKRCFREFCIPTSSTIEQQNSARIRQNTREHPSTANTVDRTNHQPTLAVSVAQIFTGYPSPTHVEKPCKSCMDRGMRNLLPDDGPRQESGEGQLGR

MOR-1C = MOR-1C (Mus musculus, UniProt P42866); settings: MOR-1C vs MOR-1 or MOR-1E

## dynorphin A
MOR-1D
  Affinity for MOR-1D compared with MOR-1 or MOR-1E: significantly higher affinity
MOR-1C
  Affinity for MOR-1C compared with MOR-1 or MOR-1E: significantly higher affinity
